The target in one data set is Human TRPA1 (Homo sapiens (Human), UniProt O75762). The experiment in a line: FLIPR based intracellular Ca2+ assay and membrane potential assay, inhibition of AITC-activated TRPA1. In kind it is cell-based. The settings on record: read-out: Human TRPA1 IC50; Table 2; comparison of Compound A and Example 1.
Data set [1] is described as follows: Pharmacokinetics after oral dose in fasted male Sprague-Dawley rats (plasma and brain).

The chains behind the UniProt entries cited, without tags or fusion partners.
UniProt O75762, whole entry: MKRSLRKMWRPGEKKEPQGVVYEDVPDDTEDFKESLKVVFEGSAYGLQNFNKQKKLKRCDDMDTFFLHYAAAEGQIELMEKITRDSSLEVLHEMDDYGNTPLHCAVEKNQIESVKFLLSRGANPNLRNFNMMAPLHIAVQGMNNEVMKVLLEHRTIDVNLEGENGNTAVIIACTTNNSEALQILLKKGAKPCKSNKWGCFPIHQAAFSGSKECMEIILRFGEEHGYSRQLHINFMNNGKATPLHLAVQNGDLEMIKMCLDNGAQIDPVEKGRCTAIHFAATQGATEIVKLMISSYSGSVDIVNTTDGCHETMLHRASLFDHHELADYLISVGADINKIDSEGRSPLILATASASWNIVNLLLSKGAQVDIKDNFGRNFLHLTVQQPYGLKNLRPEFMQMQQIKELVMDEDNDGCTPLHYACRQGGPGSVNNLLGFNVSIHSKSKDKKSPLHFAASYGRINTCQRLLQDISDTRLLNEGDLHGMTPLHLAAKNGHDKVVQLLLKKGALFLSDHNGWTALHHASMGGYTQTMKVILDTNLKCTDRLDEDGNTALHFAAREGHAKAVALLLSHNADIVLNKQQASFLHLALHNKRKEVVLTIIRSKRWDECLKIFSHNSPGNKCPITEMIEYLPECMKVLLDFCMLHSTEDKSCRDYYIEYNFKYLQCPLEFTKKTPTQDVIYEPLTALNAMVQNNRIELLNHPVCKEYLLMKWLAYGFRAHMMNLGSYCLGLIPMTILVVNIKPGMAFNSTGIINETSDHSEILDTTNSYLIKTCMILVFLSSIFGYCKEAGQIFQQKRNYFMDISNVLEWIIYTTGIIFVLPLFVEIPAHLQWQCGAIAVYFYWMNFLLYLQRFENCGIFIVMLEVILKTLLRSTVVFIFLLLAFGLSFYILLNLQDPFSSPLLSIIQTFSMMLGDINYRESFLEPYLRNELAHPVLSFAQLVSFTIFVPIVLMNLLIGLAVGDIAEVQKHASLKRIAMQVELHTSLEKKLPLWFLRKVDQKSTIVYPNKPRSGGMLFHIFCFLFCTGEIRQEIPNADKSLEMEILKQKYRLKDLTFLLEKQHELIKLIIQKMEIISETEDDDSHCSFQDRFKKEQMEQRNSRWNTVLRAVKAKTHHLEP

As usually defined, the IC50 is the concentration that inhibits the measured activity by half. Turning to `CC(=C\c1ccc(F)cc1)/C(C)=N/O`, the IC50 on Human TRPA1 amounted to 330 nM. For the same compound, the “F, rat (oral bioavailability) @ 10 μmol/kg” value in data set [1] (oral gavage, 10 μmol/kg, solution in 10% DMSO/PEG-400) was 4%. The plasma/brain in data set [1] (rat, after oral administration, text calls it brain/plasma ratio) was found to be 0. Besides, the Cmax in data set [1] (read-out: Cmax @ 10 μmol/kg, rat, oral, 10 μmol/kg, plasma) amounted to 220 nM.

These data come from patent US9108905B2, “TRPA1 antagonists” (AbbVie Inc., priority 2008, dated 2015).
